{"source": "paper PMC9574929", "about": "“Development of Hydrogen Sulfide-Releasing Carbonic Anhydrases IX- and XII-Selective Inhibitors with Enhanced Antihyperalgesic Action in a Rat Model of Arthritis” (Journal of Medicinal Chemistry, 2022)", "biological_target": "hCA IX (Homo sapiens, UniProt Q16790)", "test": "Stopped-flow CO2 hydrase assay, hCA IX"}
{"smiles": "N#Cc1ccc(CNCCc2ccc(S(N)(=O)=O)cc2)cc1", "note": "[Compound 8, 4-(2-((4-Cyanobenzyl)amino)ethyl)benzenesulfonamide]", "values": [{"measurement": "Ki", "value": 0.0754, "unit": "µM"}]}
